Data published in ChEMBL document CHEMBL1140336, “Synthesis, structure-activity relationships, and biological evaluation of fatty alcohol phosphates as lysophosphatidic acid receptor ligands, activators of PPARgamma, and inhibitors of autotaxin” (J Med Chem, 2005).

Target: T1, Lysophosphatidic acid receptor 3 (Homo sapiens) (UniProt Q9UBY5)
T1 sequence (whole entry): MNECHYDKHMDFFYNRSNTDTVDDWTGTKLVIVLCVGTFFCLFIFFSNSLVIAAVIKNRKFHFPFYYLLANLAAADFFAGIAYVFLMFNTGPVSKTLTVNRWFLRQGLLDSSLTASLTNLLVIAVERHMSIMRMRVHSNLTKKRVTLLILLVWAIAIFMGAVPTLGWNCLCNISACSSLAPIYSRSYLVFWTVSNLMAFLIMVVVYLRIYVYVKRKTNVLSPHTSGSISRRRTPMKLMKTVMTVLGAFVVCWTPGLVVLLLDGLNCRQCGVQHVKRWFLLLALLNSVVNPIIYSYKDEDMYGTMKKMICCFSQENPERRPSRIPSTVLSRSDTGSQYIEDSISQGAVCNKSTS
Assay: Maximal efficacy against LPA3 receptor expressed in RH7777 rat hepatoma cells
Format: functional, cell-based

SMILES | Emax
CCCCCCCC/C=C/CCCCCCCCOP(O)(O)=S | 78%
CCCCCCCCCCCCCCCC(=O)N[C@@H](COP(=O)(O)O)C(=O)O | 100%
